Measurements: ChEMBL document CHEMBL4402550, “Potent, Efficacious, and Stable Cyclic Opioid Peptides with Long Lasting Antinociceptive Effect after Peripheral Administration” (2020)
Activity calls are given as the source filed them. No cut-off for these calls is given here.

Amino acid sequences for entries named in this document (tags omitted). A change or cut given only in a name is not applied to a line headed by its entry.
UniProt P35372, whole entry, looked up: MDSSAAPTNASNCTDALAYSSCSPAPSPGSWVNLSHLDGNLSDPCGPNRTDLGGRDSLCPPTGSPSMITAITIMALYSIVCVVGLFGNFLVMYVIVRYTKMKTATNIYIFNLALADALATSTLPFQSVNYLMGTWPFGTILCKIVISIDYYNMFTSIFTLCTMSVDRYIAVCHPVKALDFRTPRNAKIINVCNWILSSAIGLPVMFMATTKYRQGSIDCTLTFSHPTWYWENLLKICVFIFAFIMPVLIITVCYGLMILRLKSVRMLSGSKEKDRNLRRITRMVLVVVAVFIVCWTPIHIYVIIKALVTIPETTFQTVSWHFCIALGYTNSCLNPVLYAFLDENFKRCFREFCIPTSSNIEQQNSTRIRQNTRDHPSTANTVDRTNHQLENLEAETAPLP
UniProt P41143, whole entry, looked up: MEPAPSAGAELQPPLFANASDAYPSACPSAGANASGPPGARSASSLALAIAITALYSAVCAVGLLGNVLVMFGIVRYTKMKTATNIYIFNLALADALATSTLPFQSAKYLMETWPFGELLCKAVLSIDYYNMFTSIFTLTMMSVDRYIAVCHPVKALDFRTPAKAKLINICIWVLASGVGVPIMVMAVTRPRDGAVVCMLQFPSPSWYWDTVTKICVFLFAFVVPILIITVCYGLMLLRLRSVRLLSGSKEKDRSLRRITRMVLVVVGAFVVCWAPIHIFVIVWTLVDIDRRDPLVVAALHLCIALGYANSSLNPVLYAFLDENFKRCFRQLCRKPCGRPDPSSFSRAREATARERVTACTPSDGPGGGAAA
UniProt P41145: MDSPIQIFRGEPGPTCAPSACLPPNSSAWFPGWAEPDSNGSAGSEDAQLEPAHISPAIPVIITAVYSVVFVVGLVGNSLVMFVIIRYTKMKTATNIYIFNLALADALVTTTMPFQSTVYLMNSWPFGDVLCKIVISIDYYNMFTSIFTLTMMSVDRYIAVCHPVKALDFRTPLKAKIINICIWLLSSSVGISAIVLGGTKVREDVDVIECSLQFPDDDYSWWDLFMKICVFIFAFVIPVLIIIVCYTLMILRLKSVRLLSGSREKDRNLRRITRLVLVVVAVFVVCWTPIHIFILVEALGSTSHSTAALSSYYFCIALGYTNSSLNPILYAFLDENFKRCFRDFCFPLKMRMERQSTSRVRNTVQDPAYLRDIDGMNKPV

Assays:
Mus musculus [1] = test: Antinociceptive activity in CD1 mouse assessed as reduction in nociception response during late phase at 0.15 umol,sc dosed 15 mins before test by formalin test
Mus musculus [2] = test: Antinociceptive activity in CD1 mouse assessed as reduction in nociception response during early phase at 0.15 umol,sc dosed 15 mins before test by formalin test
Mus musculus [3] = test: Antinociceptive activity in CD1 mouse assessed as reduction in thermal nociception at 1.5 umol/kg, iv dosed 15 mins before test and measured after 15 to 120 mins post compound dose by hot plate test
[4] = target: Mu-type opioid receptor (Homo sapiens) (UniProt P35372); test: Agonist activity at human MOR expressed in CHO cell membranes incubated for 1 hr by [35S]-GTPgammaS coupling assay relative to DAMGO
[5] = target: Delta-type opioid receptor (Homo sapiens) (UniProt P41143); test: Agonist activity at human DOR expressed in CHO cell membranes incubated for 1 hr by [35S]-GTPgammaS coupling assay relative to SNC80
Homo sapiens [6] = species: Homo sapiens; test: Selectivity index, ratio of EC50 for human KOR expressed in CHO cell membranes to EC50 for human MOR expressed in CHO cell membranes
Homo sapiens [7] = species: Homo sapiens; test: Selectivity index, ratio of EC50 for human DOR expressed in CHO cell membranes to EC50 for human MOR expressed in CHO cell membranes
[8] = target: Kappa-type opioid receptor (Homo sapiens) (UniProt P41145); test: Agonist activity at human KOR expressed in CHO cell membranes incubated for 1 hr by [35S]-GTPgammaS coupling assay relative to U50,488
[9] = target: Delta-type opioid receptor (Homo sapiens) (UniProt P41143); test: Antagonist activity at human DOR expressed in CHO cell membranes assessed as reduction in SNC80-induced response incubated for 1 hr by [35S]-GTPgammaS coupling assay relative to naloxone
Homo sapiens [10] = species: Homo sapiens; test: Selectivity index, ratio of Ki for displacement of [3H]-diprenorphine from human DOR expressed in CHO cell membranes to KI for displacement of [3H]-diprenorphine from human MOR expressed in CHO cell membranes
Homo sapiens [11] = species: Homo sapiens; test: Selectivity index, ratio of Ki for displacement of [3H]-diprenorphine from human KOR expressed in CHO cell membranes to KI for displacement of [3H]-diprenorphine from human MOR expressed in CHO cell membranes
Homo sapiens [12] = species: Homo sapiens; test: Selectivity index, ratio of Ki for displacement of [3H]-diprenorphine from human KOR expressed in CHO cell membranes to KI for displacement of [3H]-diprenorphine from human DOR expressed in CHO cell membranes
Homo sapiens [13] = species: Homo sapiens; test: Selectivity index, ratio of EC50 for human KOR expressed in CHO cell membranes to EC50 for human DOR expressed in CHO cell membranes
Mus musculus [14] = test: Antinociceptive activity in 5 nmol, icv opioid antagonist naloxone methiodide pre-treated CD1 mouse assessed as reduction in thermal nociception at 1.5 umol/kg, iv dosed 15 mins before test and measured after 15 to 120 mins post compound dose by hot plate test relative to control

SMILES | Activity (Mus musculus [1]) | Activity (Mus musculus [2]) | Activity (Mus musculus [3]) | Emax [4] [%] | Emax [5] [%] | Ratio EC50 (Homo sapiens [6]) | Ratio EC50 (Homo sapiens [7]) | Emax [8] [%] | Imax [9] [%] | Ratio Ki (Homo sapiens [10]) | Ratio Ki (Homo sapiens [11]) | Ratio Ki (Homo sapiens [12]) | Ratio EC50 (Homo sapiens [13]) | Activity (Mus musculus [14])
C[C@@H](NC(=O)[C@@H](N)Cc1ccc(O)cc1)C(=O)NCC(=O)N[C@@H](Cc1ccccc1)C(=O)NNC(=O)[C@H](Cc1ccccc1)NC(=O)CNC(=O)[C@@H](C)NC(=O)[C@@H](N)Cc1ccc(O)cc1 | inactive | inactive | inactive | – | – | – | – | – | – | – | – | – | – | –
N[C@@H](Cc1ccc(O)cc1)C(=O)N[C@@H]1CSCc2ccccc2CSC[C@@H](NC(=O)[C@@H](N)Cc2ccc(O)cc2)C(=O)NCC(=O)N[C@@H](Cc2ccccc2)C(=O)NNC(=O)[C@H](Cc2ccccc2)NC(=O)CNC1=O | Active | Active | Active | – | – | – | – | – | – | – | – | – | – | –
N[C@@H](Cc1ccc(O)cc1)C(=O)N[C@@H]1CSCc2ccccc2CSC[C@@H](NC(=O)[C@@H](N)Cc2ccc(O)cc2)C(=O)NCC(=O)N[C@@H](Cc2ccc(F)cc2)C(=O)NNC(=O)[C@H](Cc2ccc(F)cc2)NC(=O)CNC1=O | Active | Active | Active | 88.6 | 14.3 | 100 | 20 | 68.6 | 42 | 0.3 | 18 | 59 | – | –
N[C@@H](Cc1ccc(O)cc1)C(=O)N[C@@H]1CSCc2ccccc2CSC[C@@H](NC(=O)[C@@H](N)Cc2ccc(O)cc2)C(=O)NCC(=O)N[C@@H](Cc2ccc(F)cc2)C(=O)N2CCN(CC2)C(=O)[C@H](Cc2ccc(F)cc2)NC(=O)CNC1=O | – | – | Active | 90.5 | 21.3 | 5 | – | 75.6 | – | 0.3 | 5.3 | 15 | 5 | Active
N[C@@H](Cc1ccc(O)cc1)C(=O)N[C@@H]1CSSC[C@@H](NC(=O)[C@@H](N)Cc2ccc(O)cc2)C(=O)NCC(=O)N[C@@H](Cc2ccc(F)cc2)C(=O)N2CCN(CC2)C(=O)[C@H](Cc2ccc(F)cc2)NC(=O)CNC1=O | Active | Active | inactive | 83.6 | 11 | – | – | 69.3 | 90 | 0.4 | 1.6 | 4.4 | – | –
C[C@@H](NCC(=O)N[C@@H](Cc1ccc(F)cc1)C(=O)N1CCN(C(=O)[C@H](Cc2ccc(F)cc2)NC(=O)CNC(=O)[C@@H](C)NC(=O)[C@@H](N)Cc2ccc(O)cc2)CC1)C(=O)N[C@@H](Cc1ccc(O)cc1)C(N)=O | Active | Active | inactive | – | – | – | – | – | – | – | – | – | – | –
Cc1cc(O)cc(C)c1C[C@H](N)C(=O)N[C@@H]1CSCc2ccccc2CSC[C@@H](NC(=O)[C@@H](N)Cc2c(C)cc(O)cc2C)C(=O)NCC(=O)N[C@@H](Cc2ccc(F)cc2)C(=O)NNC(=O)[C@H](Cc2ccc(F)cc2)NC(=O)CNC1=O | Active | Active | Active | 104 | 27.7 | – | – | 76 | – | 0.6 | 5.5 | 9.6 | – | –
